pKi: −log10 of the molar value.
Experiments:
[1] = molecular target: Kappa-type opioid receptor (Cavia porcellus, UniProt P41144)
Mu-type opioid receptor = Mu-type opioid receptor (Cavia porcellus, UniProt P97266); experiment: Displacement of [3H]DAMGO from mu opioid receptor in guinea pig brain membranes after 120 mins by scintillation counting analysis
[2] = molecular target: Delta-type opioid receptor (Rattus norvegicus, UniProt P33533); experiment: Displacement of [3H]DPDPE from delta opioid receptor in Sprague-Dawley rat brain membranes after 120 mins by scintillation counting analysis; details: strain Sprague-Dawley
[3] = molecular target: Sigma non-opioid intracellular receptor 1 (Cavia porcellus, UniProt Q60492)

By UniProt entry, the sequences of proteins in these tests, tags left out. Where a name states a change or a piece, a line headed by the entry shows the natural chain unless it says otherwise.
UniProt P41144: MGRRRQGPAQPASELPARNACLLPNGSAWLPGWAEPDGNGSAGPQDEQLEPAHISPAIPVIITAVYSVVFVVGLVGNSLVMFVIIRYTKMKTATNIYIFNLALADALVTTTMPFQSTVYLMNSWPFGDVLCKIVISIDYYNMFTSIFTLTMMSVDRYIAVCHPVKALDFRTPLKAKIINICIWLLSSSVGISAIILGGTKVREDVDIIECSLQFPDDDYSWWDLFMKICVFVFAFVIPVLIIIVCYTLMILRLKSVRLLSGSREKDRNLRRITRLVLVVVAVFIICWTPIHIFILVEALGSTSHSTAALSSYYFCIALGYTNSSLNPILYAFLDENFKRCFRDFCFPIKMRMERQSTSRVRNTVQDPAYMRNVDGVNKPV
UniProt P97266, whole entry, looked up: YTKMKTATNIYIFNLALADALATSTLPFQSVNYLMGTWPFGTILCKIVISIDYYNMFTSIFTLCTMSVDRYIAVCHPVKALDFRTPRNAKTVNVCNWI
UniProt P33533, whole entry, looked up: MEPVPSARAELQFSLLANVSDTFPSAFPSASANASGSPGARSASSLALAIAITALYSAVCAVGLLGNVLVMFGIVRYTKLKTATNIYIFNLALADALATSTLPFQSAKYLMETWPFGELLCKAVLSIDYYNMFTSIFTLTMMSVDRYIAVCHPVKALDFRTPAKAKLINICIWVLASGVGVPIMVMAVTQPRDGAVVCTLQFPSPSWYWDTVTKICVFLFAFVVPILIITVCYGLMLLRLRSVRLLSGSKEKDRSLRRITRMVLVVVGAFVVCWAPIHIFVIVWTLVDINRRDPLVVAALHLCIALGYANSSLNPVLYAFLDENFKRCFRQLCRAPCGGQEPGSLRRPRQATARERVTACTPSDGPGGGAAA
UniProt Q60492, whole entry, looked up: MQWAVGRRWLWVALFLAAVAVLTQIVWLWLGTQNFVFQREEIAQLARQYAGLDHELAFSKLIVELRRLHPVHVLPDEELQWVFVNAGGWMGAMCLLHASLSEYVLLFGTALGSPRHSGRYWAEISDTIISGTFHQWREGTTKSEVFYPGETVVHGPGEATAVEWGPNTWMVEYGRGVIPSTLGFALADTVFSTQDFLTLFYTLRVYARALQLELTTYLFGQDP

What does the source list for `O=C(Cc1ccc(Cl)c(Cl)c1)N1CC2OCCN(C(=O)Cc3ccc(Cl)c(Cl)c3)C2C(N2CCCC2)C1` (racemic)?
pKi [1]: < 6.00; pKi (Mu-type opioid receptor): < 6.00; pKi [2]: < 6.00; pKi [3]: 6.00

Reference: ChEMBL document CHEMBL4190182 (Medchemcomm, 2016)
